Compound activity deposited in PubChem by National Center for Advancing Translational Sciences (NCATS).
TDP1 inh = TDP1 (human) enzyme inhibition; Q9NUW8; recombinant TDP1, AlphaScreen DNA substrate cleavage; Potency, µM (highest dose often 130 µM), inactives show at the highest dose activity change, negative = inhibition, hits mostly inhibitors; 0.28% of 350,000 active; note: potency is the fitted concentration of half-maximal effect; % is set by controls: 0 for no effect and ±100 for the full control effect; nearly all actives have a fitted effect of over 40% in size
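E. coli-derived human Tdp1, 1 nM final. Cpd preinc 15 min RT; substrate 15 nM final, 5 min RT; AS bead mix 10 ug/ml final, 10 min RT. Signal loss = tyrosine-FITC cleavage. No-enzyme wells = max signal.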
uPA generation = blocks generation of uPA at the cell surface. cell surface uPA generation assay, qHTS. AID 540303. Potency, µM (highest dose often 38.3 µM), inactives show at the top dose activity change, negative = inhibition, actives largely listed as inhibitors. 0.31% of 330,000 active; active = well fitted inhibition curve with a large enough effect; inconclusive = small, poorly fitted or top-dose-only effect; inactive = no such curve, though single readings can be large or run the other way; tested in mouse RAW 264.7 cells; note: potency is the fitted concentration of half-maximal effect; % is set by controls: 0 for no effect and ±100 for the full control effect; nearly all actives have a fitted effect of over 55% in size
DT40 TDP1 no CPT = qHTS for Inhibitors of human tyrosyl-DNA phosphodiesterase 1 (TDP1): qHTS in cells in absence of CPT; DT40 Tdp1-/- hTDP1 cells, no CPT, ATP luminescence, 48 h; AID 686978, 2013; 15% of 420,000 active; Potency, µM (doses to about 46.2 µM), for the others: at the highest dose activity change, negative = growth inhibition, usual class: inhibitors; note: potency is the fitted concentration of half-maximal effect; % is set by controls: 0 for no effect and ±100 for the full control effect; nearly all actives have a fitted effect of over 55% in size
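Stably hTDP1-transfected Tdp1-null chicken DT40 cells were treated with library compounds minus camptothecin and grown for at least 48 hr at 37 °C, after which cellular ATP was quantified by luminescence.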
TDP1 cell CPT = growth inhibition of DT40 Tdp1-/-;hTDP1 cells with camptothecin (screen for TDP1 inhibitors) | chicken DT40 Tdp1-/-;hTDP1 cells + 20 nM CPT, ATP luminescence, 48 h | Potency, µM (titrated, usually from 46.2 µM), for inactives: top-dose activity change, negative = growth inhibition, hits mostly inhibitors | 12% of 420,000 active; note: potency is the fitted concentration of half-maximal effect; % is set by controls: 0 for no effect and ±100 for the full control effect; nearly all actives have a fitted effect of over 55% in size
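Chicken DT40 Tdp1-/- cells stably complemented with human TDP1 were seeded at 400 cells/well in medium containing 20 nM camptothecin, exposed to pin-transferred compounds, and grown at 37 °C for at least 48 hr. Viability was read as ATP luminescence.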
miR-21 reporter = miR-21 reporter, rising signal | HeLa miR-21 FLuc reporter, luciferase, 48 h | Potency, µM (doses to about 38.3 µM), inactives show at the top dose reporter change, positive = more light | 340,000 tested, under 10 active | AID 2288; active = well fitted rising curve with a large enough effect; inconclusive = small, poorly fitted or top-dose-only effect; inactive = no such curve, though single readings can be large or run the other way;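 note: % of control where 0% means no effect; miR-21 action dims this reporter so a rising signal means less miR-21 action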
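Compounds were titrated across several concentrations (up to approximately 40 uM) and incubated 48 hours with HeLa miR-21-FLuc reporter cells (miR-21 target sequence downstream of FLuc, endogenous miR-21). Readout was firefly luciferase luminescence after lytic detection reagent.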
* marks the source's active call; other numbers are inactive results; ? = inconclusive; / = no result given; [ ] = another dose, or the depositor's remark. The list is not random: actives were taken first. Their share in the collection is about 16%. Unless noted, calls come from the whole dose curve; as a rule, active = well fitted curve in the direction sought with a large enough effect; inconclusive = small, poorly fitted or top-dose-only effect, or another doubt; inactive = no such curve, though single readings can be large; an effect the other way counts as inactive or inconclusive.

Keys – A = TDP1 inh; B = uPA generation; C = DT40 TDP1 no CPT; D = TDP1 cell CPT; E = miR-21 reporter
#1 C=CCN1C(c2cccc(C(F)(F)F)c2)=CS/C1=C(/C#N)c1nnc(N2CCOCC2)n1-c1ccccc1
  A: 5.3%	B: 0.1%	C: 11.6µM*	D: 11.6µM*	E: 27.5%

#2 C=CCN1C(c2ccc(Br)cc2)=CS/C1=C(/C#N)c1nnc(N2CCOCC2)n1-c1ccccc1
  A: 0.6%	B: 0.2%	C: 8.2µM*	D: 7.31µM*	E: 0.3%

#3 Cc1ccc2[nH]nc(C(=O)N3CCCC(C(=O)c4ccc(Cl)cc4)C3)c2c1 (stereo not given)
  A: 0.0%	B: 3.4%	C: 16.4µM*	D: ?	E: 5.0%

#4 Cc1noc(C)c1C(=O)N1CCCC(C(=O)c2ccc(Cl)cc2)C1 (stereo not given)
  A: -6.0%	B: -1.4%	C: ?	D: -18.0%	E: -1.8%

#5 COCC(=O)N1CCCC(C(=O)c2ccc(-c3ccccc3)c(F)c2)C1 (stereo not given)
  A: 2.7%	B: -4.2%	C: 14.6µM*	D: 20.6µM*	E: -18.8%

#6 COCC(=O)N1CCCC(C(=O)c2ccc(Oc3ccccc3)cc2)C1 (stereo not given)
  A: 0.0%	B: -4.0%	C: 8.2µM*	D: ?	E: 1.0%

#7 CC(=O)NCC(=O)N1CCCC(C(=O)c2ccc(-c3ccccc3)c(F)c2)C1 (stereo not given)
  A: 0.0%	B: 0.5%	C: -22.3%	D: 4.5%	E: -6.5%

#8 CC(C)Oc1cccc(C(=O)C2CCCN(C(=O)c3cc(C4CC4)[nH]n3)C2)c1 (stereo not given)
  A: 3.0%	B: -16.7%	C: ?	D: -23.0%	E: 9.0%

#9 COCCC(=O)N1CCCC(C(=O)c2ccc(C(F)(F)F)cc2)C1 (stereo not given)
  A: 1.4%	B: -2.0%	C: -24.2%	D: -21.7%	E: -3.9%

#10 Cc1cc(C(=O)N2CCCC(C(=O)c3ccc(Oc4ccccc4)cc3)C2)n[nH]1 (stereo not given)
  A: /	B: -10.5%	C: 13µM*	D: 20.6µM*	E: 22.7%

#11 CCn1c(CCNC(=O)c2ccc(Cl)cc2)nnc1SCC(=O)NC1CCCC1
  A: 4.6%	B: /	C: -6.1%	D: -22.3%	E: 5.7%

#12 O=C(Cn1c(=O)oc2cc(S(=O)(=O)NCc3ccccc3)ccc21)Nc1ccc(F)c(Cl)c1
  A: 3.8%	B: /	C: ?	D: ?	E: -1.6%

#13 Nc1nonc1C(=O)NC(c1ccccc1)c1ccccc1
  A: 2.3%	B: -8.4%	C: -3.5%	D: 2.2%	E: -6.4%

#14 O=C(COc1cccc(NC(=O)c2ccco2)c1)c1ccc(F)cc1
  A: 2.3%	B: -2.5%	C: 20.6µM*	D: ?	E: -0.3%

#15 O=C(COc1cccc(NC(=O)c2ccccc2)c1)c1ccc(F)cc1
  A: 5.3%	B: -10.6%	C: -49.0%	D: ?	E: 26.5%

Values in list order from the list:
Nos. 4–15 in miR-21 reporter: -1.8%, -18.8%, 1.0%, -6.5%, 9.0%, -3.9%, 22.7%, 5.7%, -1.6%, -6.4%, -0.3%, 26.5%
Nos. 4–15 in uPA generation: -1.4%, -4.2%, -4.0%, 0.5%, -16.7%, -2.0%, -10.5%, /, /, -8.4%, -2.5%, -10.6%

(listing goes on)
Keys – A = TDP1 inh; B = uPA generation; C = DT40 TDP1 no CPT; D = TDP1 cell CPT; E = miR-21 reporter
#16 COC(=O)Nc1ccc(SCC(=O)c2cccc([N+](=O)[O-])c2)cc1
  A: 3.7%	B: ?	C: 20.6µM*	D: ?	E: 2.8%

#17 O=C(COc1cccc(NC(=O)c2cccc([N+](=O)[O-])c2)c1)c1ccc(F)cc1
  A: 5.2%	B: 6.3%	C: 13µM*	D: ?	E: 26.4%

#18 COc1cccc(C(=O)COc2cccc(NC(=O)c3cccc([N+](=O)[O-])c3)c2)c1
  A: 2.0%	B: -2.2%	C: 16.4µM*	D: ?	E: ?

#19 COC(=O)c1cccc(NC(=O)COc2cccc([N+](=O)[O-])c2)c1
  A: 1.8%	B: -9.0%	C: ?	D: -13.1%	E: -22.6%

#20 CCOC(=O)c1ccc2c(c1)N(CC(=O)Nc1ccc(CC)cc1)C(=O)c1ccccc1S2
  A: 7.7%	B: /	C: /	D: /	E: -2.4%

#21 O=C(C[n+]1cccc(Br)c1)c1ccc(-c2ccccc2)cc1
  A: /	B: ?	C: ?	D: ?	E: -6.0%

#22 Cc1cccc(Cn2c(=O)n(CCC(=O)NCc3ccc4c(c3)OCO4)c(=O)c3sccc32)c1
  A: 0.0%	B: /	C: -20.6%	D: -3.4%	E: -3.6%

#23 Cc1ccc(OCCC(=O)OCC(=O)NCc2ccccc2)cc1
  A: -8.3%[0.505 µM]	B: 0.6%	C: -6.3%	D: 0.1%	E: /

#24 COc1ccc(NC(=S)N2CCN(S(=O)(=O)c3ccc(F)cc3)CC2)cc1OC
  A: 7.7%[56.1 µM]	B: 11.4%	C: -0.9%	D: -4.4%	E: -8.4%

#25 Cc1ccc(S(=O)(=O)N(C)C)cc1NC(=S)NC(=O)C12CC3CC(CC(C3)C1)C2
  A: 5.5%	B: 0.7%	C: 8.2µM*	D: 9.2µM*	E: -5.6%

#26 Cc1ccc(S(=O)(=O)N(C)C)cc1NC(=S)NC12CC3CC(CC(C3)C1)C2
  A: 8.2%	B: -1.5%	C: ?	D: ?	E: -1.8%

#27 CN(C)S(=O)(=O)c1cccc(NC(=S)NC23CC4CC(CC(C4)C2)C3)c1
  A: /	B: -6.9%	C: ?	D: ?	E: 6.7%

#28 NS(=O)(=O)c1cccc(NC(=S)NC(=O)C23CC4CC(CC(C4)C2)C3)c1
  A: 4.2%	B: -1.0%	C: 20.6µM*	D: ?	E: -49.9%

#29 COc1cc2cc3c4c(cc(OC)c(OC)c4c2cc1OC)CCN3C
  A: 22.6%	B: /	C: 11.9µM*	D: 10.6µM*	E: /

#30 COC(=O)c1ccccc1NC(=O)Cn1c(SC)c(F)cnc1=O
  A: 3.3%	B: /	C: 1.5%	D: -4.1%	E: -3.9%

31) COc1cc(CN2CCC3(CC2)c2ccccc2[C@@H](NC(=O)c2ccccc2OC)[C@@H]3O)ccc1F
32) COc1ccc(CN2CCC3(CC2)c2ccccc2[C@@H](NC(=O)c2ccco2)[C@@H]3OC)c(O)c1
33) CO[C@H]1[C@H](NC(=O)c2ccco2)c2ccccc2C12CCN(Cc1cc(Cl)ccc1O)CC2
34) Nc1nc(NCCCN2CCOCC2)nc(Nc2ccc(F)cc2)c1[N+](=O)[O-]
35) Nc1nc(NCCCN2CCOCC2)nc(Nc2ccccc2F)c1[N+](=O)[O-]
36) Cc1cccc(Nc2nc(NCCCN3CCOCC3)nc(N)c2[N+](=O)[O-])c1
37) NC(=O)C(C(=O)/C=C/c1ccc(Cl)cc1)=C1SCCS1
38) COc1ccc(/C=C/C(=O)C(C(N)=O)=C2SCCS2)cc1
39) O=C(Nc1c2c(nn1-c1ccc(Cl)cc1)CS(=O)(=O)C2)c1cccc(Cl)c1
40) CC(C)(C)n1nc2c(c1NC(=O)c1cccc(Cl)c1)CS(=O)(=O)C2
assay / compound	31	32	33	34	35	36	37	38	39	40
TDP1 inh	/	/	/	5.6%	5.5%	3.4%	/	2.7%	2.6%	6.2%
uPA generation	/	/	/	3.6%	9.1%	11.2%	?	-10.3%	/	1.2%
DT40 TDP1 no CPT	18.4µM*	-14.6%	23.1µM*	?	16.4µM*	14.6µM*	8.2µM*	?	20.6µM*	22.1%
TDP1 cell CPT	-11.8%[9.04 µM]	-7.7%[9.04 µM]	-0.5%[9.04 µM]	?	-11.4%	16.4µM*	3.26µM*	?	16.4µM*	-4.9%
miR-21 reporter	/	/	/	-5.7%	-10.0%	-4.4%	14.1%	-19.7%	21.7%	-4.0%

Of the compounds above, these have a cyano group.
1) C=CCN1C(c2cccc(C(F)(F)F)c2)=CS/C1=C(/C#N)c1nnc(N2CCOCC2)n1-c1ccccc1
2) C=CCN1C(c2ccc(Br)cc2)=CS/C1=C(/C#N)c1nnc(N2CCOCC2)n1-c1ccccc1
assay / compound	1	2
TDP1 inh	5.3%	0.6%
uPA generation	0.1%	0.2%
DT40 TDP1 no CPT	11.6µM*	8.2µM*
TDP1 cell CPT	11.6µM*	7.31µM*
miR-21 reporter	27.5%	0.3%

More results.
41) N=c1n(CCCOc2ccccc2Cl)c2ccccc2n1CC(N)=O
42) Cn1c(=O)n(Cc2ccc(Cl)cc2)c2ccccc21
43) Cn1c(=O)n(Cc2ccccc2Cl)c2ccccc21
44) Nc1nc2ccccc2n1CCOc1ccccc1Cl
45) CCN(CC)CCn1c(=N)n(CCOc2ccccc2Cl)c2ccccc21
46) CCOc1nc2cccc(C(=O)O)c2n1Cc1ccc(-c2ccccc2-c2nn[nH]n2)cc1
47) Cc1ccn2c(c1)nc(=S)n2C(=O)c1ccccc1
assay / compound	41	42	43	44	45	46	47
TDP1 inh	/	4.9%	2.5%	3.1%	-2.1%	/	-5.3%
uPA generation	-2.0%	3.3%	-0.4%	-0.6%	/	/	-7.4%
DT40 TDP1 no CPT	20.6µM*	-2.9%	18.4µM*	25.9µM*	4.11µM*	3.4%	?
TDP1 cell CPT	18.4µM*	-24.5%	?	?	3.66µM*	12.6%	?
miR-21 reporter	-3.3%	-2.9%	-5.6%	3.4%	?	/	-36.8%
